{"source": "patent EP1790655B1", "about": "“Biologically active peptides” (CMS Peptides Patent Holding Company Limited, priority 2001, dated 2003)", "key": {"mononuclear phagocyte": {"tested_on": "mononuclear phagocyte", "assay": "phagocytotic function of mononuclear phagocyte in mice with S180 sarcoma", "format": "in vivo, BALB/c mice", "conditions": "20mg/kg i.p. once per day from the day after transplanting; transplanted S180 sarcoma"}, "T lymphocyte": {"tested_on": "T lymphocyte", "assay": "T lymphocyte transformation in mice with ascitic fluid type liver cancer H22", "format": "in vivo, BALB/c mice", "conditions": "20mg/kg i.p. once per day"}, "NK cell": {"tested_on": "NK cell", "assay": "NK cell activity in mice with ascitic fluid type liver cancer H22", "format": "in vivo, BALB/c mice", "conditions": "20mg/kg i.p. once per day"}, "[1]": {"tested_on": "Sheep red blood cells (SRBC)", "assay": "humoral immunity (SRBC hemolysis index) of mice bearing transplanted B16 melanoma", "format": "in vivo, C57BL/6 mice", "conditions": "20mg/kg i.p. once per day from the day after transplanting, SRBC on the 27th day"}}}
{"compound": "O=P1(N(CCCl)CCCl)NCCCO1", "note": "(stereo not shown) [Cyclo-phos phamide, Cyclophosphamide]", "values": [{"measurement": "Phagocytosis index", "setting": "mononuclear phagocyte", "result": "5.92±2.47"}, {"measurement": "Stimulation index", "setting": "T lymphocyte", "result": "1.01±0.23"}, {"measurement": "NK activity index", "setting": "NK cell", "result": "16.5±7.2", "unit": "%"}, {"measurement": "Hemolysis index", "setting": "[1]", "result": "20.7±19.1"}]}
